Legend:
[1] = target: αvβ3 integrin (human (endogenous in WM266)) (UniProt P06756)
[2] = target: αvβ3 integrin (human (endogenous in WM266)) (UniProt P06756); remark: listed apart in the source
[3] = target: αvβ3 integrin (human (endogenous in WM266)) (UniProt P06756); remark: listed apart in the source
[4] = target: αvβ3 integrin (human (endogenous in WM266)) (UniProt P06756); remark: listed apart in the source

By UniProt entry, the sequences of proteins in these tests, tags left out. Residues count along the entry.
UniProt P06756, 31-1048, chain 1 of 2: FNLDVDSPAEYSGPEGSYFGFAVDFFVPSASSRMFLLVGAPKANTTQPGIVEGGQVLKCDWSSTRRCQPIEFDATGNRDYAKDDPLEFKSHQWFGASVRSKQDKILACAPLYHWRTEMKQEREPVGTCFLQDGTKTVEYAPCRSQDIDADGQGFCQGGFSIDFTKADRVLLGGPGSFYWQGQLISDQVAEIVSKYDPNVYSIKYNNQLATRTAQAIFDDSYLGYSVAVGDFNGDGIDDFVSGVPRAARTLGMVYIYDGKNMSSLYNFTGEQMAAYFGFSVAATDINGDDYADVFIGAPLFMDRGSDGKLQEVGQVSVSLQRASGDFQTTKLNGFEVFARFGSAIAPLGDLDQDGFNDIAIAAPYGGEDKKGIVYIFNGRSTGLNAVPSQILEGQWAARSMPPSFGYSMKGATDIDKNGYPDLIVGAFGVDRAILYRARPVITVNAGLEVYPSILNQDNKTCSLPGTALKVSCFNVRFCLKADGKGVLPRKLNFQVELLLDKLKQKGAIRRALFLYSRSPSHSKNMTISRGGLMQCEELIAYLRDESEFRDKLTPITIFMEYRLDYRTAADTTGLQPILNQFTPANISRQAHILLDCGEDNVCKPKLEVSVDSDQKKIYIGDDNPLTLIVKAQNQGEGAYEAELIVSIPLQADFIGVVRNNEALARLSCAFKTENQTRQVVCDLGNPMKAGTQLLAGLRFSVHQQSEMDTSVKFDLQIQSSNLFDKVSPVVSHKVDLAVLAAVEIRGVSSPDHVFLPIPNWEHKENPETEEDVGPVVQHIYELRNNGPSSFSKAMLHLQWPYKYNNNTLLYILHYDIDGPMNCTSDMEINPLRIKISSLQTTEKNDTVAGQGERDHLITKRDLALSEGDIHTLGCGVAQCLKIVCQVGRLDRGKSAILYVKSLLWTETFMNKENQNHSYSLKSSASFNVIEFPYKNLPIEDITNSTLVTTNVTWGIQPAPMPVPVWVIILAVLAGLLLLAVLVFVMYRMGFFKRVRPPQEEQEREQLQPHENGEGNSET

Row | Substance | detachment of adherent WM266 cells from vitronectin-coated plates (αvβ3 with vitronectin), peptide 50 µM, 2 h [1] [%] | decrease of adhesion of WM266 cells to fibronectin-coated plates (αvβ3 with fibronectin), peptide 50 µM, crystal violet [2] [%] | decrease of adhesion of WM266 cells to vitronectin-coated plates (αvβ3 with vitronectin), peptide 50 µM, crystal violet [2] [%] | IC50 of inhibition of adhesion of WM266 cells to fibronectin-coated plates (αvβ3 with fibronectin) [3] [µM] | IC50 of inhibition of adhesion of WM266 cells to vitronectin-coated plates (αvβ3 with vitronectin) [3] [µM] | percentage of peptide internalised into WM266 cells, flow cytometry with dithionite quenching, peptide 10 µM, 30 min [4] [%]
1 | Cilengitide (peptide) | 60 | – | – | – | – | –
2 | RGDechi-hCit (peptide) | 50 | 40 | 70 | 53 | 25.5 | –
3 | NBD-labeled RGDechi-hCit (peptide) | – | – | – | – | – | 90
